Test results taken from ChEMBL document CHEMBL1150250, “New R/S-3,4-dihydro-2,2-dimethyl-6-halo-4-(phenylaminothiocarbonylamino)-2H-1-benzopyrans structurally related to (+/-)-cromakalim as tissue-selective pancreatic beta-cell K(ATP) channel openers” (Bioorg Med Chem, 2008).

Test: Inhibition of glucose-induced insulin secretion in Wistar rat pancreatic beta islets assessed as residual insulin secretion at 1 uM relative to control
Format: functional
Procedure, shortened: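 Groups of 10 islets from adult fed Wistar rats were preincubated for 30 min at 37 °C in bicarbonate salt medium with 2.8 mM glucose and 0.5% albumin, gassed with O2/CO2. They were then incubated for 90 min in the same medium with 16.7 mM glucose plus drug. Insulin was measured by radioimmunoassay and expressed as % of drug-free 16.7 mM glucose control. Values are mean ± SEM (n).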

CC(N/C(=N\C#N)Nc1ccncc1)C(C)(C)C (racemic) [PINACIDIL ANHYDROUS]
Activity: 97.7%
